## Yeast mating assay 2: variants of the scFv Ab-91

Target peptide (SARS-CoV-2 spike, HR2 region): PDVDLGDISGINAS

Ab-91 is the parent antibody, in scFv form: VL, then three GGGGS repeats, then VH. The light chain is unchanged in all variants.
VL: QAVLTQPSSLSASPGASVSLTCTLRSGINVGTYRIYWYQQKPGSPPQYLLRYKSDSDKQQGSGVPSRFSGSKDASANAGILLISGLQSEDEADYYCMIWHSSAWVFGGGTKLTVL
VH: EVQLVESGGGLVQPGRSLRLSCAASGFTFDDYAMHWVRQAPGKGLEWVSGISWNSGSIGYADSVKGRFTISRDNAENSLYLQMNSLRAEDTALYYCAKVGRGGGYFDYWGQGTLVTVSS

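The starting antibody came from a phage panning campaign against this peptide. Library AAYL51 holds single substitutions and randomly drawn double and triple substitutions in the CDRs. The scFvs were displayed on barcoded MATa yeast, the peptide on MATalpha yeast. Mating (16 h, 30 °C) was followed by selection of diploids and sequencing of their barcodes. The ratio of observed to expected reads was calibrated, replicate by replicate, on BCL2-family standards whose Kd was known from biolayer interferometry. There are three technical replicates.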

Changes read parent residue, position, new residue, counted from the first residue of the VH shown. This list gathers variants with a substitution at A61 (VH, numbered from residue 1). The Kd shown is the geometric mean over detected replicates; a lower Kd is a better binder. A pair that was not seen in any replicate is written "no signal"; this usually means weak binding, but a binder can also be missed. Three control strains display no target. For library AAYL51, 21% of the pairings with them gave a signal, with a median of 34 µM and one signal in twenty below 1.8 µM, so weak values seen in few replicates may be background.

changes	Kd (apparent)	detected
G26E+D30K+A61Y	no signal	0 of 3
D30I+S55M+A61P	30 µM	2 of 3
D30T+N54A+A61E	no signal	0 of 3
A33K+A61L+R101G	no signal	0 of 3
A61G+G103S	83 µM	2 of 3
D31H+A61N+K65G	no signal	0 of 3
T28G+A61V+D107I	17 µM	1 of 3
D31F+G59E+A61W	no signal	0 of 3
W53M+A61M+F106M	21 µM	3 of 3
A61H+G104D+F106Q	no signal	0 of 3
A33F+N54V+A61S	no signal	0 of 3
D30W+G50W+A61H	no signal	0 of 3
A61L+V99G+G102I	no signal	0 of 3
T28S+A61T+D62I	no signal	0 of 3
T28D+I51M+A61K	no signal	0 of 3
F29L+A61Y+R101W	no signal	0 of 3
M34N+A61T+V64E	42 µM	1 of 3
W53K+Y60I+A61D	64 µM	1 of 3
Y60E+A61I+Y105I	no signal	0 of 3
N54P+A61R+S63G	26 µM	1 of 3
A33Y+S52M+A61Q	no signal	0 of 3
F29Y+A61W+G103M	no signal	0 of 3
W53P+A61P+V64R	3.5 µM	1 of 3
W53C+A61H	7.0 µM	3 of 3
G26L+Y32V+A61T	no signal	0 of 3
Y32L+H35K+A61V	no signal	0 of 3
M34W+S57H+A61M	no signal	0 of 3
A33P+G59I+A61I	no signal	0 of 3
M34Y+A61P+G100A	no signal	0 of 3
D30R+A61K+V99E	99 nM	3 of 3
F27M+A61F+D62M	no signal	0 of 3
F29P+A61Q	34 µM	1 of 3
G56H+A61V+Y105G	610 nM	3 of 3
Y32C+W53Q+A61K	4.4 µM	1 of 3
N54F+A61I	no signal	0 of 3
T28A+A61D+V99Y	no signal	0 of 3
G50T+G59A+A61N	130 µM	2 of 3
A61E+G102C+G103L	no signal	0 of 3
D31Y+A61G+K65R	66 µM	2 of 3
D30E+H35M+A61F	no signal	0 of 3
G50F+I58R+A61W	no signal	0 of 3
G50S+A61K+D62N	22 µM	3 of 3
S52D+A61H+D107V	310 µM	2 of 3
A61L+G100H+Y108P	48 µM	2 of 3
F29V+I58N+A61F	860 µM	2 of 3
G56C+S57V+A61T	no signal	0 of 3
G56T+A61V+Y105C	4.2 µM	1 of 3
G50F+W53Q+A61C	53 µM	3 of 3
S52R+G59P+A61M	no signal	0 of 3
G26L+S52Y+A61Y	no signal	0 of 3
A61W+V99M	180 µM	2 of 3
A33K+A61S	no signal	0 of 3
Y32V+A61G+K65E	2.2 µM	3 of 3
G59A+Y60L+A61Q	no signal	0 of 3
S55L+A61V+F106C	47 µM	2 of 3
Y32H+A61L+F106Y	no signal	0 of 3
G56D+A61E+D107L	no signal	0 of 3
T28A+S57W+A61Y	no signal	0 of 3
A61G+V64F+G100W	11 nM	3 of 3
A61G+V64D+F106D	no signal	0 of 3
T28R+G56W+A61M	no signal	0 of 3
G26V+D31Y+A61R	no signal	0 of 3
A61V+V64D+D107A	88 µM	3 of 3
I51Y+A61K	5.5 µM	1 of 3
I51E+I58V+A61S	180 µM	2 of 3
A61S	no signal	0 of 3
M34V+I58F+A61D	no signal	0 of 3
A61E	1.8 µM	2 of 3
D31H+A61M+V64R	no signal	0 of 3
F27V+A61S+Y108H	no signal	0 of 3
T28A+A61T+G102Q	no signal	0 of 3

Extract of 10 entries:

changes,Kd (apparent),detected
W53M+A61M+F106M,21 µM,3 of 3
G59A+Y60L+A61Q,no signal,0 of 3
A61S,no signal,0 of 3
G56T+A61V+Y105C,4.2 µM,1 of 3
G26L+Y32V+A61T,no signal,0 of 3
G26E+D30K+A61Y,no signal,0 of 3
D31H+A61M+V64R,no signal,0 of 3
D31Y+A61G+K65R,66 µM,2 of 3
Y32L+H35K+A61V,no signal,0 of 3
A33K+A61S,no signal,0 of 3

The measurements come from Engelhart et al. 2022 (doi:10.1038/s41597-022-01779-4) through the FLAb antibody collection.